What was measured:
[1] = in vivo; conditions: Sprague-Dawley, rat, po, 1 mg/kg
[2] = in vivo; conditions: Sprague-Dawley, rat, iv, 1 mg/kg
[3] = in vivo; conditions: mouse, iv
[4] = in vivo; conditions: Sprague-Dawley, rat, po, 0.5 mg/kg
[5] = in vivo; conditions: Sprague-Dawley, rat, po, 3 mg/kg
[6] = in vivo; conditions: Sprague-Dawley, rat, po, 3 mg/kg; remark: listed apart in the source
[7] = in vivo; conditions: mouse, po
[8] = in vivo; conditions: mouse, po, 10 mg/kg
[9] = in vivo; conditions: mouse, po, 10 mg/kg; remark: listed apart in the source
[10] = in vivo; conditions: Sprague-Dawley, rat, po, 3 mg/kg; remark: listed apart in the source
[11] = in vivo; conditions: mouse, po, 10 mg/kg; remark: listed apart in the source
[12] = in vivo; conditions: Sprague-Dawley, rat, iv, 0.5 mg/kg
[13] = in vivo; conditions: Sprague-Dawley, rat, po, 1 mg/kg; remark: listed apart in the source
[14] = in vivo; conditions: Sprague-Dawley, rat, po, 1 mg/kg; remark: listed apart in the source

Question: Which results are given for `CCOP(=O)(O)C1=C[C@@H](OC(CC)CC)[C@H](NC(C)=O)[C@@H](N)C1`?
Answer: Vd/F [1]: 2.29 L/kg; half-life [2]: 1.8 h

Question: With `CCC(CC)O[C@@H]1C=C(P(=O)(O)O)C[C@H](NC(=N)N)[C@H]1NC(C)=O` as the molecule, how does the half-life [3] read?
Answer: 0.53 h

Question: What about the Vd/F [4] of the same molecule?
Answer: 0.91 L/kg

Question: And the Vd/F [5]?
Answer: 59.6 L/kg

Question: What about the bioavailability [6] of the same molecule?
Answer: 3.2%

Question: What about the Vd/F [7] of the same molecule?
Answer: 0.51 L/kg

Question: What about the half-life [8] of the same molecule?
Answer: 2.44 h

Question: What about the Vd/F [9] of the same molecule?
Answer: 36 L/kg

Question: What about the half-life [10] of the same molecule?
Answer: 1.47 h

Question: What about the bioavailability [11] of the same molecule?
Answer: 7%

Question: And the half-life [12]?
Answer: 0.83 h

Question: Which half-life [2] does the source give for `CCC(CC)O[C@@H]1C=C(P(=O)(O)O)C[C@H](N)[C@H]1NC(C)=O` [TAMIPHOSPHOR] here?
Answer: 3.36 h

Question: And the half-life [13]?
Answer: 3.05 h

Question: And the bioavailability [14]?
Answer: 2.33%
